In patent publication US11046680B1, “Heteroaryl-substituted triazoles as APJ receptor agonists” (priority 2016, dated 2021):
Like-named read-outs stand apart in the source and are kept apart here.

By UniProt entry, the sequences of proteins in these tests, tags left out. Where a name states a change or a piece, a line headed by the entry shows the natural chain unless it says otherwise.
UniProt P35414: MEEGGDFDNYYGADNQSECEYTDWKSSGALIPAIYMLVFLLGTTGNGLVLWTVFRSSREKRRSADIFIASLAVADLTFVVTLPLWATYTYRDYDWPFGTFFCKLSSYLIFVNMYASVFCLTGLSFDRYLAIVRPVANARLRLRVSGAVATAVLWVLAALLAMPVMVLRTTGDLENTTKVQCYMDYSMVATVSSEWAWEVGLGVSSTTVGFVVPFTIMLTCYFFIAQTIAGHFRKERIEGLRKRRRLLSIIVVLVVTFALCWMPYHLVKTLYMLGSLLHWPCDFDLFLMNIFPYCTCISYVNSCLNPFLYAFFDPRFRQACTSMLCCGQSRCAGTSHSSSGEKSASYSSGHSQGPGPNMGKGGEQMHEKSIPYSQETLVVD

Biological target: human APJ receptor (Homo sapiens (Human), UniProt P35414)
Assay: biochemical
Conditions: [35S]GTPγS binding, CHO membranes expressing human APJ receptor
Method: The human APJ receptor was cloned by polymerase chain reaction and the gene encoding the receptor was subcloned in pFLAG-CMV™-3 expression vector (Sigma, Saint Louis, Mo. USA) in-house at Amgen. A GTPγS binding assay was performed on membranes prepared from CHO cells stably expressing human APJ receptor. The optimum experimental conditions for the concentrations of GDP, MgCl2, and NaCl in the assay buffer were initially determined. […] Incubation was at RT for 90 min and the microplate was read using a ViewLux™ ultra HTS Microplate Imager (PerkinElmer, Inc.).

[1] = read-out: Activity hAPJ SPA EC50 IP

| Structure (SMILES) | EC50 [1] [µM] | EC50 (Activity hAPJ SPA EC50 IP (μM)) [µM] |
| --- | --- | --- |
| COc1ccc(C2=CCS(=O)(=O)CC2)cc1-n1c(NS(=O)(=O)CCc2ccc(Cl)cc2)nnc1-c1cccs1 [Example 250.0, 2-(4-chlorophenyl)-N-(4-(5-(1,1-dioxido-3,6-dihydro-2H-thiopyran-4-yl)-2-methoxyphenyl)-5-(2-thiophenyl)-4H-1,2,4-triazol-3-yl)ethanesulfonamide] | 0.013 | – |
| COc1cccc(OC)c1-n1c(NS(=O)(=O)[C@@H](C)[C@H](OC)c2cnc(C)cn2)nnc1-c1ccn(C)n1 [Example 323.0, (1R,2S)-N-(4-(2,6-dimethoxyphenyl)-5-(1-methyl-1H-pyrazol-3-yl)-4H-1,2,4-triazol-3-yl)-1-methoxy-1-(5-methyl-2-pyrazinyl)-2-propanesulfonamide] | 0.0011 | – |
| COc1ccc(C2=CCSCC2)cc1-n1c(NS(=O)(=O)CCc2ccc(Cl)cc2)nnc1-c1cccs1 [Example 248.0, 2-(4-chlorophenyl)-N-(4-(5-(3,6-dihydro-2H-thiopyran-4-yl)-2-methoxyphenyl)-5-(thiophen-2-yl)-4H-1,2,4-triazol-3-yl)ethanesulfonamide] | 0.021 | – |
| COc1ccc(Br)cc1-n1c(NS(=O)(=O)CCc2ccc(F)cc2)nnc1-c1cccs1 [Example 302.0, N-(4-(5-Bromo-2-methoxyphenyl)-5-(2-thiophenyl)-4H-1,2,4-triazol-3-yl)-2-(4-fluorophenyl)ethanesulfonamide] | 0.323 | – |
| COc1cccc(OC)c1-n1c(NS(=O)(=O)[C@H](C)Cc2ncc(F)cn2)nnc1-c1cc(C)no1 [Example 62.0, ((R)-N-(4-(2,6-dimethoxyphenyl)-5-(3-methylisoxazol-5-yl)-4H-1,2,4-triazol-3-yl)-1-(5-fluoropyrimidin-2-yl)propane-2-sulfonamide (or (R)-N-(4-(2,6-dimethoxyphenyl)-5-(3-methylisoxazol-5-yl)-4H-1,2,4-triazol-3-yl)-1-(5-fluoropyrimidin-2-yl)propane-2-(sulfonamide] | 0.016 | – |
| COc1ccc(N2CCOC2=O)cc1-n1c(NS(=O)(=O)CCc2ccc(Cl)cc2)nnc1-c1cccs1 [Example 249.0, 2-(4-chlorophenyl)-N-(4-(2-methoxy-5-(2-oxooxazolidin-3-yl)phenyl)-5-(thiophen-2-yl)-4H-1,2,4-triazol-3-yl)ethanesulfonamide] | 0.727 | – |
| COc1ccc(N(C)C)cc1-n1c(NS(=O)(=O)CCc2ccc(F)cc2)nnc1-c1cccs1 [Example 303.0, N-(4-(5-(Dimethylamino)-2-methoxyphenyl)-5-(2-thiophenyl)-4H-1,2,4-triazol-3-yl)-2-(4-fluorophenyl)ethanesulfonamide] | – | 0.014 |
| COc1cccc(OC)c1-n1c(NS(=O)(=O)[C@H](C)[C@H](O)c2ccc(F)cn2)nnc1-c1ccn(C)n1 (single isomer, unassigned) [Example 23.0] | 0.0011 | – |
| COc1cccc(OC)c1-n1c(NS(=O)(=O)C[C@H](O)c2ccc(Cl)cn2)nnc1-c1ccn(C)n1 (single isomer, unassigned) [Example 366.0, (R)-2-(5-Chloropyridin-2-yl)-N-(4-(2,6-dimethoxyphenyl)-5-(1-methyl-1H-pyrazol-3-yl)-4H-1,2,4-triazol-3-yl)-2-hydroxyethanesulfonamide or (S)-2-(5-chloropyridin-2-yl)-N-(4-(2,6-dimethoxyphenyl)-5-(1-methyl-1H-pyrazol-3-yl)-4H-1,2,4-triazol-3-yl)-2-hydroxyethanesulfonamide] | 0.0047 | – |
| COc1cccc(OC)c1-n1c(NS(=O)(=O)[C@@H](C)[C@H](OC)c2ncc(Cl)cn2)nnc1-c1ccn(C)n1 [Example 330.0, (1R,2S)-1-(5-chloropyrimidin-2-yl)-N-(4-(2,6-dimethoxyphenyl)-5-(1-methyl-1H-pyrazol-3-yl)-4H-1,2,4-triazol-3-yl)-1-methoxypropane-2-sulfonamide] | 0.00062 | – |
| COc1cccc(OC)c1-n1c(NS(=O)(=O)[C@H](C)Cc2ncc(F)cn2)nnc1-c1conc1C (single isomer, unassigned) [Example 64.0, (R)-N-(4-(2,6-dimethoxyphenyl)-5-(3-methylisoxazol-4-yl)-4H-1,2,4-triazol-3-yl)-1-(5-fluoropyrimidin-2-yl)propane-2-sulfonamide or (S)-N-(4-(2,6-dimethoxyphenyl)-5-(3-methylisoxazol-4-yl)-4H-1,2,4-triazol-3-yl)-1-(5-fluoropyrimidin-2-yl)propane-2-sulfonamide] | 0.15 | – |
| COc1cccc(OC)c1-n1c(NS(=O)(=O)[C@@H](C)[C@H](OC)c2ncc(C#N)cn2)nnc1-c1ccn(C)n1 [Example 213.0, (1R,2S)-1-(5-cyanopyrimidin-2-yl)-N-(4-(2,6-dimethoxyphenyl)-5-(1-methyl-1H-pyrazol-3-yl)-4H-1,2,4-triazol-3-yl)-1-methoxypropane-2-sulfonamide] | – | 0.0012 |
| COCC[C@@H]([C@H](C)c1ncc(F)cn1)S(=O)(=O)Nc1nnc(-c2nc(C)cs2)n1-c1c(OC)cccc1OC (single isomer, unassigned) [Example 20.0] | 0.0011 | – |
